The chains behind the UniProt entries cited, without tags or fusion partners.
UniProt P09936, whole entry: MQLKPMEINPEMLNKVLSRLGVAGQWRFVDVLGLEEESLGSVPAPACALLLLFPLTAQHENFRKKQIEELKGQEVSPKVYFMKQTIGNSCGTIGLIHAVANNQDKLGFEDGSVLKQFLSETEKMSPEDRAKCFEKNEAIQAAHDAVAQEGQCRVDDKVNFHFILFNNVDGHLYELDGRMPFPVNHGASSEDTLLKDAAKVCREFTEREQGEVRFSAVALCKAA

Only a part is listed here, and it is no random draw. Some results for these compounds are left out of this collection, so the calls shown say nothing about other tests. Activity calls are given as the source filed them. No stated cut-off is given here; in the data, active means inhibition above about 30%; inactive means the rest.
The compounds below were run against Ubiquitin carboxyl-terminal hydrolase isozyme L1 (Homo sapiens) (UniProt P09936) (assay: inhibitors of human UCHL1 deubiquitinase (AID 1645859)). Conditions: purified UCHL1, Ub-rhodamine cleavage fluorescence; at 20 µM; active compounds read high.
`COc1ccc(C(=O)NCC2(N3CCOCC3)CCCCC2)cc1` was tested, and the inhibition was inactive: 0.598%.
In the case of `O=C(NCC1(N2CCCCC2)CCCCC1)c1ccc2c(c1)OCCO2`, the inhibition is reported as inactive: 1.57%.
For `Cc1c(C(=O)NCC2(N(C)C)CCCCC2)oc2ccc(F)cc12`, the inhibition was inactive: 0.115%.
In the case of `COc1cccc(C(=O)NCC2(N3CCCCC3)CCCCC2)c1`, the inhibition is reported as inactive: -7.13%.
`Cc1c(C(=O)NCC2(N(C)C)CCCCC2)oc2ccccc12` was tested, and the inhibition was inactive: -0.0635%.
With `O=C(NCC1(N2CCCCC2)CCCCC1)c1ccc2ccccc2c1` the inhibition was inactive: -3.69%.
`O=C(NCC1(N2CCOCC2)CCCCC1)c1ccccc1F` was tested, and the inhibition was inactive: -0.201%.

— PubChem BioAssay AID1645859 (Buhrlage Lab, Dana-Farber Cancer Institute and Novartis …, 2021)
